The entries are a selection whose mix differs from that of the whole data set. Records with an inconclusive call do not appear. Activity calls are given as the source filed them. Calls come from the whole dose curve; as a rule, active = well fitted activation curve with a large enough effect; inconclusive = small, poorly fitted or top-dose-only effect; inactive = no such curve, though single readings can be large or run the other way.
Assay: qHTS Assay for Agonists of the Thyroid Stimulating Hormone Receptor: Activators of Intracellular cAMP Concentrations in Parental HEK 293; note: % of control where 0% means no effect; nearly all actives have a fitted effect of over 55% in size
Conditions: parental HEK293 CNG cAMP sensor, membrane potential fluorescence; at 57.1 µM (top of the series) unless noted

| SMILES | activation |
| --- | --- |
| O=P(Nc1nccs1)(c1ccccc1)c1ccccc1 | inactive: 5.8% |
| c1nnnn1CCn1cnnn1 | inactive: -5.29% |
| CN1CCC[C@H](OC(=O)C(c2ccccc2)c2ccccc2)C1 | inactive: 8.42% [at 11.4 µM] |
| C[C@@H](O)COc1ccc([As](=O)(O)O)cc1N | inactive: -1.04% [at 11.4 µM] |
| Cc1cc([N+](=O)[O-])cc([N+](=O)[O-])c1O | inactive: 20.3% |
| [N-]=[N+]=Nc1ccc([As](=O)(O)O)cc1 | inactive: 8.27% [at 11.4 µM] |
| O=C(OC1CN2CCC1CC2)c1cccc(Cl)c1 (stereo not given) | inactive: 7.11% |
| COC(=O)c1cc2c(s1)N=C(c1ccccc1)N(C)P2(=O)N1CCOCC1 (stereo not given) | inactive: -15.6% |
| O=P1(Nc2nc3ccc(Cl)cc3s2)COc2ccccc2O1 (stereo not given) | inactive: 13% |
| O=[N+]([O-])c1ccc(C[As](=O)(O)O)cc1 | inactive: 12.5% [at 11.4 µM] |
| Cc1c2non([O-])c-2c(C)[n+](=O)[n+]1[O-] | inactive: -8.62% |
| NCC[C@@H](N)CSP(=O)(O)O | inactive: 1.33% [at 11.4 µM] |
| [N-]=[N+]=NCC(O)CN=[N+]=[N-] (stereo not given) | inactive: 5.89% [at 11.4 µM] |
| C(Cc1nn[nH]n1)c1nn[nH]n1 | inactive: -0.19% [at 11.4 µM] |
| CN(C(=O)Cc1ccccc1)[C@@H]1CC[C@@]2(CCCO2)C[C@H]1N1CCCC1 | inactive: 8.41% |
| CCc1nc2c(n1)c1c(non1O)c1c2no[n+]1[O-] | inactive: -11% |
| O=C(CO)Nc1ccc([As](=O)(O)O)cc1 | inactive: 16.5% [at 11.4 µM] |
| COP1(=S)c2c(C)nn(CCC#N)c2N=C(c2ccc(F)cc2)N1C (stereo not given) | inactive: 4.47% |

| SMILES | activation |
| --- | --- |
| O=C(COc1ccccc1)OC1CN2CCC1CC2 (stereo not given) | inactive: -0.127% |
| O=C(O)[C@@H](O)c1ccc([As](=O)(O)O)cc1 | inactive: -2.76% [at 11.4 µM] |
| CN(N=O)C(=N)N[N+](=O)[O-] | inactive: 33.9% |
| [N-]=[N+]=NCC(N)=O | inactive: -1.44% [at 11.4 µM] |
| O=[As]c1ccc(S(=O)(=O)NCCO)cc1 (stereo not given) | inactive: 6.34% [at 11.4 µM] |
| O=C(OC1CN2CCC1CC2)C12CC3CC(CC(C3)C1)C2 (stereo not given) | inactive: 22.7% |
| NC(=O)Nc1cc([As](=O)(O)O)cc(I)c1O | inactive: -2.12% [at 11.4 µM] |
| NS(=O)(=O)Cc1ccc([As](=O)(O)O)cc1 | inactive: 5.82% [at 11.4 µM] |
| O=C(CC(=O)c1ccccc1)O[C@H]1CN2CCC1CC2 | inactive: 7.97% [at 11.4 µM] |
| O=P(Nc1nccs1)(c1ccccc1)c1nc2ccccc2s1 (stereo not given) | inactive: 15.9% |
| O=[As](O)(O)c1ccc([As](=O)(O)O)cc1 | inactive: 16.2% [at 11.4 µM] |
| Cc1nn(-c2ccccc2)c2c1P(=O)(N1CCOCC1)N(C)C(c1ccccc1)=N2 (stereo not given) | inactive: -0.719% |
| O=P1(Nc2ncccn2)COc2ccccc2OC1 | inactive: 6.25% |
| O=P1(Nc2ccc(Br)cn2)COc2ccccc2OC1 | inactive: 1.26% |
| CN(CCCl)Cc1cc(Cl)c(NC2=NCCN2)c(Cl)c1 | inactive: -3.35% |
| O=P1(Nc2ccccn2)COc2ccccc2OC1 | inactive: 1.91% |
| Clc1n[nH]nc1-c1nn[nH][15n]1 | inactive: -0.704% |

Reference: PubChem BioAssay AID938 (National Center for Advancing Translational Sciences (NCATS), 2007)
